## Measured affinities in a library of Ab-14 light chain variants

Target peptide (SARS-CoV-2 spike, HR2 region): PDVDLGDISGINAS

Parent scFv Ab-14: VH joined to VL by a 15-residue (Gly4Ser)3 linker. Changes lie in the light chain CDRs alone.
VH: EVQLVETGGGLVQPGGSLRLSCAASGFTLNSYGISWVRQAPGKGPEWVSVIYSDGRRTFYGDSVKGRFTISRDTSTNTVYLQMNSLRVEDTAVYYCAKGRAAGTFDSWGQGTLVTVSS
VL: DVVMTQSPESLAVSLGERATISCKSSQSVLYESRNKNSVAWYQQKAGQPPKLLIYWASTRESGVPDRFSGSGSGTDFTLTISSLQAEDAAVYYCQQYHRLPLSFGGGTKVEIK

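Phage display of a naive human antibody library on the peptide gave the parent. These sequences belong to a second round, designed from the earlier measurements on random variants of the parent. Group labels follow the data file (Ctrl: baseline library sampled from a position-specific scoring matrix, with some repeated check sequences; GP: Gaussian process model; GPLM: also part of the Gaussian process libraries; HC: hill climbing; Gen: genetic algorithm; Gibbs: Gibbs sampling; a sequence that several methods proposed may carry one label only). The assay is AlphaSeq: two haploid yeast populations carry antibody and antigen on their surface. Mating (16 h, 30 °C) was followed by selection of diploids and sequencing of their barcodes. The ratio of observed to expected reads was calibrated, replicate by replicate, on BCL2-family standards whose Kd was known from biolayer interferometry. Each pool was mated in six replicate cultures.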

Each variant is given by its three light chain CDRs, as the data file delimits them; those of the parent are KSSQSVLYESRNKNSVA, WASTRES, QQYHRLPLS. This list holds designs with at most six substitutions. The Kd shown is the geometric mean over detected replicates; a lower Kd is a better binder. A pair that was not seen in any replicate is written "nd"; this usually means weak binding, but a binder can also be missed. Values of this round are not directly comparable with the first-round values of the same sequences. Of ten entries with the parent sequence, four were seen in most replicates (averages 2.2 nM to 240 nM), three in one and three in none, so single entries are noisy. Three control strains display no target. For all light chain designs, 4% of the pairings with them gave a signal, with a median of 430 nM and one signal in twenty below 38 nM, so weak values seen in few replicates may be background. In the paper, a design with two or fewer of six values counts as a poor binder.

The variant KSSQSVLYESQNKNSVA | NASTRES | NQYQRLPLS [Ctrl] showed 8.5 nM (6 of 6 replicates).
The variant KSSQSVEYESRSKNSVA | RASTRES | QQYHRLPLS [Ctrl] showed 220 nM (5 of 6 replicates).
The variant KSSQSVLYESRNANSVA | WASTRES | QQYHRLPLS [Ctrl] showed 38 µM (1 of 6 replicates).
The variant KQSQEKLYESRNKNNVA | GASTRES | QQYHRLPLS [GP_HC] showed 500 pM (6 of 6 replicates).
The variant KSPQSWLYESRNKNSVA | HASTREQ | QQYHRLPLS [GP_HC] showed 1.1 nM (6 of 6 replicates).
The variant KSSQSVYYESMNKNSVA | WASWRES | FQYHRLPLS [Ctrl] showed nd (0 of 6 replicates).
The variant KSSQSVLYESRNKNSVA | WASTRES | QCIHRLPLS [Ctrl] showed 1.3 µM (2 of 6 replicates).
The variant KSNQSVLYTSRNKNSVA | GASTRES | QQYHRLPLS [Ctrl] showed 4.6 nM (6 of 6 replicates).
The variant KLPQSQLYESRNKNSVA | NASTRED | QQYHRLPLS [GP_Gen] showed 9.6 nM (6 of 6 replicates).
The variant KFSQSVLTESRNKNSVA | DASFRES | QQYHRLPLS [GP_HC] showed 920 pM (6 of 6 replicates).
The variant KVEQSTLYESRNKNSVA | WASTRES | QQYHRLPLS [GP_HC] showed 15 nM (6 of 6 replicates).
The variant KLYQSVLYESRMKNSVA | NASQRES | QQYHRLPLS [GP_Gen] showed 4.1 nM (6 of 6 replicates).
The variant KSSKSVPFESRNKNSVA | NASTRES | QQYHRLPLS [GP_HC] showed nd (0 of 6 replicates).
The variant KSSQSVLYESRNANSVA | SASTRES | QQYHRFPLL [Ctrl] showed 190 nM (6 of 6 replicates).
The variant KSLQSVLYESRDKNSVA | EASTRED | QQYHRLPLS [GP_HC] showed 5.6 nM (6 of 6 replicates).
The variant KVQQSWLYESRNKNSVA | DASQRES | QQYHRLPLS [GP_Gen] showed 570 pM (6 of 6 replicates).
The variant KLPQSVWYESRNKNSVA | QASTRES | QQYHRLPLS [GP_Gen] showed 560 pM (6 of 6 replicates).
The variant KSSQSVLYESRNKNSVA | WSSTPES | QQYHRLPLS [Ctrl] showed nd (0 of 6 replicates).
The variant KSSQSDLYESRNKNSVA | GASLRES | QQYHRLPLS [GP_HC] showed 11 nM (6 of 6 replicates).
The variant KSLQSVLYESRDKNSVA | NASTRED | QQYHRLPLS [GP_HC] showed 1.3 nM (6 of 6 replicates).
The variant KSSQSWLYESRNKNSVA | GASTREN | QQYHRLPLM [GP_HC] showed 380 pM (6 of 6 replicates).
The variant KSSPSYLYEDRAFNSVA | HASTRES | QQYHRLPLS [GP_Gibbs] showed 3.0 nM (6 of 6 replicates).
The variant KSSISFLYESRNTNSVA | EASTRES | QQYHRLPLS [GP_HC] showed 2.0 nM (6 of 6 replicates).
The variant KSSQSVLYESVNKNSVA | SASTRES | QQYHRLPLS [Ctrl] showed 1.2 nM (6 of 6 replicates).
The variant KESQSVLGEWRNKNSVA | DASTRES | QQYHRLPLS [GP_HC] showed 500 pM (6 of 6 replicates).
The variant KVSQSELYESRNKNSVA | NASTRES | QDYHRLPLS [GP_Gen] showed 770 pM (6 of 6 replicates).
The variant KSGQGVLYESRNKNSVA | QASTRES | QQYHRLPLS [GPLM_HC] showed 3.5 nM (6 of 6 replicates).
The variant KIQQAVLYESQNKNSVA | WASTRES | QQYHRLPLS [Ctrl] showed 35 nM (5 of 6 replicates).
The variant KLSQSVLYESRNKNSVA | QASTRMS | QQYHRLPLS [GP_Gen] showed 780 pM (6 of 6 replicates).
The variant KSSPSDLGESRNKQSVA | WASTRES | QQYIRLTLS [Ctrl] showed nd (0 of 6 replicates).
The variant FSPQSVLYESRNFNSVA | HASTRED | QQYHRLPLS [GP_HC] showed 2.9 nM (6 of 6 replicates).
The variant KVSQSWLYESRNKNSVA | NASQREQ | QQYHRLPLS [GP_Gen] showed 630 pM (6 of 6 replicates).
The variant KLSQSVWYESRNKNSVA | EASTRES | QQYHRLPLS [GP_Gen] showed 500 pM (6 of 6 replicates).
The variant KQSFSVLQESMNKNSVA | DASTRES | QQYHRLPLS [GP_HC] showed 5.0 nM (6 of 6 replicates).
The variant KQSQEFLYESRNKNSVA | DASTRES | QQYHRLPLS [GP_HC] showed 1.1 nM (6 of 6 replicates).
The variant KSSESVLMESRNKNSVA | WASTRES | QQVHRLPLS [Ctrl] showed 430 nM (5 of 6 replicates).
The variant KSKQSWLYESRNKNSVA | GASRRES | QQYHRLPLS [GP_HC] showed 3.1 nM (6 of 6 replicates).
The variant KSSISYPYESRNENSVA | EASTREQ | QQYHRLPLS [GP_HC] showed 3.5 nM (6 of 6 replicates).
The variant KLSQSEWYESRNKNSVA | NASTRES | QQYHRLPLS [GP_Gen] showed 340 pM (6 of 6 replicates).
The variant KSSQSVTFESRNCNSVA | DASTRES | QQYHRLPLS [GP_HC] showed 2.0 nM (6 of 6 replicates).

From the list, the first 4 with no signal in any replicate:

CDR-L1	CDR-L2	CDR-L3	group	apparent Kd	seen in
KSSQSVYYESMNKNSVA	WASWRES	FQYHRLPLS	Ctrl	nd	0 of 6
KSSKSVPFESRNKNSVA	NASTRES	QQYHRLPLS	GP_HC	nd	0 of 6
KSSQSVLYESRNKNSVA	WSSTPES	QQYHRLPLS	Ctrl	nd	0 of 6
KSSPSDLGESRNKQSVA	WASTRES	QQYIRLTLS	Ctrl	nd	0 of 6

From the AlphaSeq antibody data of Li et al. 2023 (doi:10.1038/s41467-023-39022-2), copy in the FLAb collection.